Source: US20260382577A1, “ORAL PHARMACEUTICAL PREPARATION COMPRISING SODIUM-GLUCOSE COTRANSPORTER-2 INHIBITOR AND ANGIOTENSIN II RECEPTOR BLOCKER” (published 2026)

Tests used:
A549 cells = assay: Cell survival rate (MTT) in A549 cells; details: up to 25 μM, 24 and 48 hours
MDCK cells = assay: Cell survival rate (MTT) in MDCK cells; details: up to 25 μM, 24 and 48 hours
[1] = system: angiotensin converting enzyme (ACE); assay: ACE protein expression (Human ACE ELISA) in LPS inflammation-induced H9c2 cells
ACE mRNA = ACE mRNA expression (RT-PCR) in LPS inflammation-induced H9c2 cells; details: for mRNA expression of ACE: single substance
Sprague-Dawley rats = assay: 4-week repeated oral administration toxicity in rats; details: 4 weeks repeated oral
[2] = cited from earlier work
[3] = Drug-drug compatibility test, accelerated storage 4 weeks
[4] = Single oral administration pharmacokinetics in beagle dogs; details: for equivalence: judgment criterion log 0.8 to 1.25; for drug-drug interaction (DDI): single versus combined administration
[5] = Phase 1 clinical trial, pharmacokinetic interaction; details: Dapagliflozin 10 mg in the presence of Telmisartan 80 mg
[6] = low concentration 2.5 μM to 10 μM
[7] = Acceleration 1 week, 40±2 °C/75±5% RH
[8] = Acceleration 2 week, 40±2 °C/75±5% RH
[9] = Acceleration 3 week, 40±2 °C/75±5% RH
[10] = Acceleration 4 week, 40±2 °C/75±5% RH

property [3, 7] | property [3, 8] | property [3, 9] | property [3, 10] | property ([3]; Initial) | SMILES | cell survival rate (A549 cells) | cell survival rate (MDCK cells) | mRNA expression of ACE (ACE mRNA; 15 μM high concentration) | mRNA expression of ACE (ACE mRNA; [6]) | equivalence [4] | drug-drug interaction (DDI) [4] | other results
unsuitable | unsuitable | unsuitable | unsuitable | suitable | Cc1ccc([C@@H]2O[C@H](CO)[C@@H](O)[C@H](O)[C@H]2O)cc1Cc1ccc(-c2ccc(F)cc2)s1 |  |  |  |  |  |  | 
suitable | suitable | unsuitable | unsuitable | suitable | OC[C@H]1O[C@@H](c2ccc(Cl)c(Cc3ccc(O[C@H]4CCOC4)cc3)c2)[C@H](O)[C@@H](O)[C@@H]1O |  |  | decrease below the normal level | did not decrease to a normal level |  |  | 
suitable | suitable | unsuitable | unsuitable | suitable | CCOc1ccc(Cc2cc([C@@H]3O[C@H](CO)[C@@H](O)[C@H](O)[C@H]3O)ccc2Cl)cc1 |  |  | decrease below the normal level | did not decrease to a normal level | equivalent | no drug-drug interaction (DDI) at all | GLU (Sprague-Dawley rats): decreased; 90% confidence interval of AUC T/R ratio [5]: 0.97 to 1.03; 90% confidence interval of Cmax T/R ratio [5]: 0.93 to 1.12; AUC T/R ratio ([5]; repeated oral, humans): 1.00 times; Cmax T/R ratio ([5]; repeated oral, humans): 1.02 times; difference in AUCall between single and combined administration group ([4]; Dapagliflozin): 1.0 times

Continued, molecule first:

SMILES | property [3, 7] | property [3, 8] | property [3, 9] | property [3, 10] | property ([3]; Initial) | cell survival rate (A549 cells) | cell survival rate (MDCK cells) | mRNA expression of ACE (ACE mRNA; 15 μM high concentration) | mRNA expression of ACE (ACE mRNA; [6]) | equivalence [4] | drug-drug interaction (DDI) [4] | other results
CCCc1nc2c(C)cc(-c3nc4ccccc4n3C)cc2n1Cc1ccc(-c2ccccc2C(=O)O)cc1 | suitable | suitable | suitable | suitable | suitable | no effect on cell survival rate | no effect on cell survival rate | decrease below the normal level | did not decrease to a normal level | equivalent | no drug-drug interaction (DDI) | ACE expression inhibition effect ([1]; 25 μM): the best; ACE expression inhibition effect ([1]; all treatment concentrations (10, 25, 50)): superior to that of olmesartan at all treatment concentrations; mRNA expression (ACE) (ACE mRNA; 25 μM): mostly inhibited; mRNA expression inhibition effect (ACE) (ACE mRNA; all treatment concentrations): superior to that of olmesartan at all treatment concentrations; body weight gain (Sprague-Dawley rats): a tendency for inhibiting weight gain; difference in solubility by pH [2]: ≥ 100 times; dissolution interference ([2]; conventional reports): interfering with the dissolution of SGLT-2 inhibitors, particularly Dapagliflozin; difference in AUCall between single and combined administration group ([4]; Telmisartan): 1.0 times
CCCCC(=O)N(Cc1ccc(-c2ccccc2-c2nnn[nH]2)cc1)[C@H](C(=O)O)C(C)C | suitable | suitable | suitable | suitable | suitable |  |  |  |  |  |  | 
CCCc1nc(C(C)(C)O)c(C(=O)O)n1Cc1ccc(-c2ccccc2-c2nnn[nH]2)cc1 | suitable | suitable | suitable | suitable | suitable | no effect on cell survival rate | no effect on cell survival rate |  |  |  |  | 
